The results in this text go back to ChEMBL document CHEMBL3217672, “Optimization of a series of dipeptides with a P3 -neopentyl asparagine residue as non-covalent inhibitors of the chymotrypsin-like activity of human 20S proteasome” (Medchemcomm, 2012).

Sequences of proteins named here, by UniProt entry; tags and fusion partners are left off. A change or cut given only in a name is not applied to a line headed by its entry.
UniProt P28074: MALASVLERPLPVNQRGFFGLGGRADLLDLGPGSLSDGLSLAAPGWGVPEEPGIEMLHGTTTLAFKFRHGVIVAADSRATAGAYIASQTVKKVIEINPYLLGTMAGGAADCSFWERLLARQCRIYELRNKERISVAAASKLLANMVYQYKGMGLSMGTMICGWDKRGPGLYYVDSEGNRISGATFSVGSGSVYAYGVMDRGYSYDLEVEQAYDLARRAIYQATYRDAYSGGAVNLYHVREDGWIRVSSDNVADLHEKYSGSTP

SMILES strings stand for the structures.

In experiment [1] the target is T1, Proteasome Macropain subunit MB1 (Homo sapiens, UniProt P28074). The experiment in a line: Inhibition of 26S proteasome beta5 subunit in human Calu6 cells using Suc-LLVY-aminoluciferin as substrate after 1hr by luminescence assay. The experiment is classed as cell-based, Calu-6.
The target of experiment [2] is T1, Proteasome Macropain subunit MB1. The experiment in a line: Inhibition of 20S proteasome beta5 subunit in human erythrocytes using Ac-WLA-AMC as substrate by fluorescence assay. The class given is cell-based.

Turning to `CC(C)C[C@H](NC(=O)CNC(=O)c1cc(Cl)ccc1Cl)B(O)O` [IXAZOMIB], the IC50 in experiment [1] worked out at 9 nM; in experiment [2], 3 nM.

A word on the IC50: it is the concentration that gives 50% inhibition. A lower IC50 goes with greater potency.
